{
  "source": "paper PMC9917735",
  "about": "“Optimization of the Hemolysis Assay for the Assessment of Cytotoxicity” (International Journal of Molecular Sciences, 2023)",
  "system": "E. coli",
  "data": [
    {"smiles": "CC[C@H](C)[C@H](NC(=O)CN)C(=O)NCC(=O)N[C@@H](C)C(=O)N[C@H](C(=O)N[C@@H](CC(C)C)C(=O)N[C@@H](CCCCN)C(=O)N[C@H](C(=O)N[C@@H](CC(C)C)C(=O)N[C@H](C(=O)N[C@H](C(=O)NCC(=O)N[C@@H](CC(C)C)C(=O)N1CCC[C@H]1C(=O)N[C@@H](C)C(=O)N[C@@H](CC(C)C)C(=O)N[C@H](C(=O)N[C@@H](CO)C(=O)N[C@@H](Cc1c[nH]c2ccccc12)C(=O)N[C@H](C(=O)N[C@@H](CCCCN)C(=O)N[C@@H](CCCNC(=N)N)C(=O)N[C@@H](CCCCN)C(=O)N[C@@H](CCCNC(=N)N)C(=O)N[C@@H](CCC(N)=O)C(=O)N[C@@H](CCC(N)=O)C(N)=O)[C@@H](C)CC)[C@@H](C)CC)[C@@H](C)O)[C@@H](C)O)C(C)C)C(C)C", "note": "[Melittin, reference compound]", "values": [
      {"measurement": "Minimum inhibitory concentration (E. coli)", "value": 8, "unit": "µM"}
    ]}
  ]
}
